# From paper PMC12525650, “Pharmacokinetic Profile of Extracts from the Chayote (Sechium edule) H387 07 Hybrid and Phytochemical Characterization of Its Segregant H387 M16 for Potential Therapeutic Applications” (Molecules, 2025)
# Assays:
# [1] = cited from earlier work; for Cmax: rats, oral CuB from Trichosanthes cucumerina
# [2] = cited from earlier work
# [3] = HPLC pharmacokinetics of secondary metabolites in serum/plasma, liver and urine of mice after oral Sechium H387 07 extract; type: in vivo, female CD-1 mice (Mus musculus L.)
# Description: Pharmacokinetic parameters were evaluated in female CD-1 mice (Mus musculus L.) provided by the vivarium of the Faculty of Higher Studies, Zaragoza, National Autonomous University of Mexico. All mice were clinically healthy, approximately 12 weeks old, and weighed ~30 g. […] Female mice were selected as the available cohort from the institutional vivarium, and their use allowed us to establish baseline pharmacokinetic parameters under standardized conditions. […] Animals were randomly assigned to treatment groups. Treatment allocation and sample collection were blinded. All experimental procedures were approved by the Research Ethics Committee of the Faculty of Higher Studies, Zaragoza (FESZ/CEI/1/1/5/27/23).
# For the HPLC quantification of metabolites, concentrations were expressed as µg/mL for serum and urine and as µg/mg of tissue for liver samples. The results were translated into graphical form using the identified metabolites. The Cmax and time to reach maximum concentration (Tmax) of the secondary metabolites were obtained directly from the concentration–time curve.
# The area under the plasma concentration–time curve from time zero to the last measurable concentration ( AUC0−t ) was calculated using the linear trapezoidal rule, according to the following formula: AUC0−t=∑i=1n−1Ci+Ci+1/2×ti+1−ti where Ci and Ci+1 are the plasma concentrations at consecutive time points ti and ti+1 . The total area under the curve ( AUC0−∞ ) was obtained as the sum of AUC0−t and the extrapolated area from the last measurable concentration to infinity, calculated as:(1) AUC0−∞=AUC0−t+Clast/kel where Clast is the final observed concentration and kel is the terminal final elimination constant estimated from the slope of the log-linear portion of the concentration–time curve.
substance,measurement,setting,value
cucurbitacin B,CuB concentration recorded,[1]; Trichosanthes cucumerina extracts,up to 0.031 µg/mL
same,Cmax,[1]; 2 mg/kg,9.7 ng/mL
same,Cmax,[1]; 4 mg/kg,31.2 ng/mL
same,Cmax,"[2]; 8 mg/kg, ref other studies",0.0341 ng/mL
same,Tmax,"[2]; 8 mg/kg, ref other studies",up to 3 h
same,concentration in systemic circulation,[2]; after a dose of 1 mg/kg,34 ng/mL
same,Cmax,"[3]; plasma, oral Sechium H387 07 extract 125 mg/kg, listed as CuB",37560 ng/mL
same,AUC0−t,"[3]; plasma, oral extract 125 mg/kg",1.87 ± 0.13 μg⋅h/mL
same,Clearance,"[3]; plasma, oral extract 125 mg/kg",11.7 mL/min/kg
same,T1/2,"[3]; plasma, oral extract 125 mg/kg",7.2 ± 1.1 h
same,Vd,"[3]; plasma, oral extract 125 mg/kg",5.0 L/kg
same,Tmax,"[3]; plasma, oral extract 125 mg/kg, Table S1, unit not given",1 ± 0.2
same,"serum concentration, change with dose and time","[3]; serum, oral extract 8, 125, 250 mg/kg, 1, 6, 24, 48 h","After an initial decline at 6 h, a secondary rise was observed at 24–48 h"

# Like-named read-outs stand apart in the source and are kept apart here.
